How the values were obtained:
Solubility = conditions: in water

For Hyaluronic Acid Diacerein Ester, the Solubility (Solubility) was over 5000 µg/mL and the pH in water was 7.0-8.0.
